Laboratory results from publication PMC4730229, “Benzobisthiazoles Represent a Novel Scaffold for Kinase Inhibitors of CLK Family Members” (Biochemistry, 2015).

Tests used:
CLK3 = biological target: T1, CLK3 (Homo sapiens, UniProt P49761); test: Kinase inhibition assay, IC50; type: biochemical
T1 construct: The catalytic domains of CLK1, CLK2, CLK3, CLK2K193A, and CLK2K193A/D290A were tagged with GST; GST (N); made in house
Method: (§1) A small molecule inhibitor library consisting of 1600 compounds was obtained from LIFE Chemicals (Kiev, Ukraine). These compounds are part of the CUTE kinase collection that was predicted by in silico profiling against a panel of targets and includes potent kinase inhibitor compounds.[16] Compounds were dissolved as 10 mM stocks in DMSO and stored at room temperature, in the presence of 5% humidity and 5% oxygen in the dark in a Roylan Storage Pod system. Compounds were dispensed into white 384-well plates using the Labcyte Echo520 instrument at a final concentration of 10 μM. Next, 5 μL of 144.92 nM purified GST-CLK2cd in kinase assay buffer A was added to the compounds, incubated for 10 min at room temperature prior to addition of 5 μL of a 2 μM ATP/10 μM S6K peptide mixture, and incubated again for 60 min at room temperature. Subsequently, 10 μL of Kinase-Glo was added to the wells, and the plates were analyzed after 10 min on the Envision II multilabel plate reader (PerkinElmer). […] The percentage of inhibition is equal to 100 – [(total ATP before assay – remaining ATP in assay with compound)/(total ATP before assay – remaining ATP in assay with DMSO) × 100]. […] NR9 was obtained from Enzo Life Sciences (catalog no. ALX-270-463-M001). […]

Dyrk1A = biological target: T2, Dyrk1A (Homo sapiens, UniProt Q13627); test: Kinase inhibition assay, IC50; type: biochemical
T2 construct: purchased Invitrogen PV3785
Method: as §1

IC50 (CLK3): > 3000 nM
IC50 (Dyrk1A): 204 nM
Structure (SMILES): CCN1/C(=C/C(C)=O)Sc2ccc(OC)cc21 [TG003, reference compound]
